T1: Bovine, dephosphorylated, Myelin Basic Protein (MBP), P02687
T1 chain: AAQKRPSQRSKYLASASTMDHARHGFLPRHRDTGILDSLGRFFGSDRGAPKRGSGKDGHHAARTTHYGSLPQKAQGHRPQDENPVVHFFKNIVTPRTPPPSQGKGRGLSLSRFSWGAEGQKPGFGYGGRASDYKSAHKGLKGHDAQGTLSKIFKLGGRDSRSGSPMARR

B1: INSR (N-terminal His, PV3664) (protein)
chain: RKRQPDGPLGPLYASSNPEYLSASDVFPCSVYVPDEWEVSREKITLLRELGQGSFGMVYEGNARDIIKGEAETRVAVKTVNESASLRERIEFLNEASVMKGFTCHHVVRLLGVVSKGQPTLVVMELMAHGDLKSYLRSLRPEAENNPGRPPPTLQEMIQMAAEIADGMAYLNAKKFVHRDLAARNCMVAHDFTVKIGDFGMTRDIYETDYYRKGGKGLLPVRWMAPESLKDGVFTTSSDMWSFGVVLWEITSLAEQPYQGLSNEQVLKFVMDGGYLDQPDNCPERVTDLMRMCWQFNPKMRPTFLEIVNLLKDDLHPSFPEVSFFHSEENKAPESEELEMEFEDMENVPLDRSSHCQREEAGGRDGGSSLGFKRSYEEHIPYTHMNGGKKNGRILTLPRSNPS
B2: INSR (N-terminal GST, PV3781) (protein)
chain: RKRQPDGPLGPLYASSNPEYLSASDVFPCSVYVPDEWEVSREKITLLRELGQGSFGMVYEGNARDIIKGEAETRVAVKTVNESASLRERIEFLNEASVMKGFTCHHVVRLLGVVSKGQPTLVVMELMAHGDLKSYLRSLRPEAENNPGRPPPTLQEMIQMAAEIADGMAYLNAKKFVHRDLAARNCMVAHDFTVKIGDFGMTRDIYETDYYRKGGKGLLPVRWMAPESLKDGVFTTSSDMWSFGVVLWEITSLAEQPYQGLSNEQVLKFVMDGGYLDQPDNCPERVTDLMRMCWQFNPKMRPTFLEIVNLLKDDLHPSFPEVSFFHSEENKAPESEELEMEFEDMENVPLDRSSHCQREEAGGRDGGSSLGFKRSYEEHIPYTHMNGGKKNGRILTLPRSNPS
B3: LCK (protein)
chain: MGCGCSSHPEDDWMENIDVCENCHYPIVPLDGKGTLLIRNGSEVRDPLVTYEGSNPPASPLQDNLVIALHSYEPSHDGDLGFEKGEQLRILEQSGEWWKAQSLTTGQEGFIPFNFVAKANSLEPEPWFFKNLSRKDAERQLLAPGNTHGSFLIRESESTAGSFSLSVRDFDQNQGEVVKHYKIRNLDNGGFYISPRITFPGLHELVRHYTNASDGLCTRLSRPCQTQKPQKPWWEDEWEVPRETLKLVERLGAGQFGEVWMGYYNGHTKVAVKSLKQGSMSPDAFLAEANLMKQLQHQRLVRLYAVVTQEPIYIITEYMENGSLVDFLKTPSGIKLTINKLLDMAAQIAEGMAFIEERNYIHRDLRAANILVSDTLSCKIADFGLARLIEDNEYTAREGAKFPIKWTAPEAINYGTFTIKSDVWSFGILLTEIVTHGRIPYPGMTNPEVIQNLERGYRMVRPDNCPEELYQLMRLCWKERPEDRPTFDYLRSVLEDFFTATEGQYQPQP
B4: GSK3B (protein)
chain: MSGRPRTTSFAESCKPVQQPSAFGSMKVSRDKDGSKVTTVVATPGQGPDRPQEVSYTDTKVIGNGSFGVVYQAKLCDSGELVAIKKVLQDKRFKNRELQIMRKLDHCNIVRLRYFFYSSGEKKDEVYLNLVLDYVPETVYRVARHYSRAKQTLPVIYVKLYMYQLFRSLAYIHSFGICHRDIKPQNLLLDPDTAVLKLCDFGSAKQLVRGEPNVSYICSRYYRAPELIFGATDYTSSIDVWSAGCVLAELLLGQPIFPGDSGVDQLVEIIKVLGTPTREQIREMNPNYTEFKFPQIKAHPWTKVFRPRTPPEAIALCSRLLEYTPTARLTPLEACAHSFFDELRDPNVKLPNGRDTPALFNFTTQELSSNPPLATILIPPHARIQAAASTPTNATAASDANTGDRGQTNNAASASASNST

Molecular target: T1, Bovine, dephosphorylated, Myelin Basic …

Protein	MBP Kinase Activity
B1	Strong
B2	Strong
B3	Strong
B4	Negative
